Nrf2 activator: Nrf2 pathway activation. AREc32 ARE-luciferase reporter (MCF7-derived line), luminescence, 24 h. Potency, µM (doses to about 46.1 µM), without a hit: at the highest dose activation, hits mostly activators. hit rate 0.31% among 410,000; also: potency is read from the fitted curve at half-maximal effect; % of control where 0% means no effect; nearly all actives have a fitted effect of over 65% in size
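AREc32_Fluc, 1000 cells/well, OPTI-MEM + 5% FBS, o/n 37 deg C 5% CO2; 23 nL cpd by pin tool, 24 hr; Steady-Glo 30 min RT, luminescence.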
ClpP mod: qHTS Assay for Activators of ClpP | ATP-dependent Clp protease proteolytic subunit (Bacillus subtilis (strain 168)), P80244 | purified B. subtilis ClpP, FRET peptide cleavage, 20 min | Potency, µM (highest dose often 57.5 µM), for inactives: at the top dose activity change, negative = active | hit rate 1.9% among 340,000; active = well fitted falling curve with a large enough effect; inconclusive = small, poorly fitted or top-dose-only effect; inactive = no such curve, though single readings can be large or run the other way; also: potency is read from the fitted curve at half-maximal effect; the source files actives as falling curves though it sought activators and does not explain the sign; nearly all actives have a fitted effect of over 65% in size
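ClpP 10 microg/mL final, pH 8 Tris/KCl buffer with BSA, glycerol, Tween-20; compound pinned in; FRET-FV substrate; RT 20 min; Ex320/Em430; ΔFRET vs ADEP 5.8 microM, DMSO, no enzyme.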
A549 tox: counter-screen for Nrf2 inhibitors: cytotoxicity in A549 cells; A549 ARE-Fluc cells, CellTiter-Fluor viability, 18-24 h; Potency, µM (top dose mostly 46 µM), inactives show at the top dose activity change, negative = cytotoxicity, hits mostly inhibitors; hit rate 0.16% among 390,000; AID 504648; also: potency is read from the fitted curve at half-maximal effect; % is scaled to controls: 0 for no effect and ±100 for the full control effect
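A549 ARE_Fluc cells in 5% FBS OPTI-MEM were exposed to compounds in concentration-response for 18-24 h at 37 deg C. Viability was read by CellTiter-Fluor fluorescence (Ex 405/Em 525) after 30 min, before the luciferase read.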
TCR act: activates T cell receptor signaling | 330,000 tested, under 10 active | primary human leukocytes, anti-CD3, IL-2 HTRF, 48 h | Potency, µM (titrated, usually from 9.22 µM), for inactives: top-dose activation of IL-2 secretion, hits mostly activators | AID 504894; also: % of control where 0% means no effect
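HTRF read-out of IL-2 secretion: europium cryptate donor excited at 320nm, d2 acceptor emission at 665nm. Cells were primary human leukocytes incubated 48 hr with compounds and a-CD3 beads, supplying TCR signal only.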
Nrf2 inh: inhibitors of Nrf2 signaling. Potency, µM (highest dose often 46 µM), without a hit: top-dose activity change, negative = inhibition, actives largely listed as inhibitors. A549 ARE-Fluc reporter, luciferase luminescence, 18-24 h. hit rate 2.1% among 360,000. AID 504444; also: potency is read from the fitted curve at half-maximal effect; % is scaled to controls: 0 for no effect and ±100 for the full control effect; nearly all actives have a fitted effect of over 60% in size
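Nrf2 activity is the BugLite luminescence, read 15 min after reagent at room temperature, following CellTiter-Fluor cytotoxicity readout (30 min, 37C). Compound titrations were applied for 18-24 h to 5000 A549 ARE_Fluc cells/well in 5% FBS OPTI-MEM.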
miR-21 reporter: miR-21 reporter, rising signal; HeLa miR-21 FLuc reporter, luciferase, 48 h; Potency, µM (top dose mostly 38.3 µM), without a hit: at the highest dose reporter change, positive = more light; 340,000 tested, under 10 active; active = well fitted rising curve with a large enough effect; inconclusive = small, poorly fitted or top-dose-only effect; inactive = no such curve, though single readings can be large or run the other way;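 further: % of control where 0% means no effect; miR-21 action dims this reporter so a rising signal means less miR-21 action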
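HeLa cells endogenously expressing miR-21, stably carrying CMV-driven firefly luciferase with a downstream miR-21 binding site, 2000 cells/well. Titrations up to approximately 40 uM, 48 hours; luciferase luminescence read.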
The depositor's hits bear a star; ? = inconclusive; · = not tested or not shown; [ ] = dose if it differs, or a comment. An excerpt weighted towards active compounds, which were near 3.7% of everything screened. Unless noted, calls follow the shape of the dose curve; as a rule, active = well fitted curve in the direction sought with a large enough effect; inconclusive = small, poorly fitted or top-dose-only effect, or another doubt; inactive = no such curve, though single readings can be large; an effect the other way counts as inactive or inconclusive.

Letters: A = Nrf2 activator; B = ClpP mod; C = A549 tox; D = TCR act; E = Nrf2 inh; F = miR-21 reporter
smiles: COc1cc2c(cc1OC)n(CC(=O)c1cccc(Cl)c1)c(=O)n1nc(CCn3nc(C)cc3C)nc21
  A = 1% | B = -2% | C = -14% | D = · | E = · | F = 5%

smiles: Cc1ccc(-c2nnc(Nc3ccc4c(c3)nc(C)n4C)c3ccccc23)cc1
  A = 3% | B = -1% | C = ? | D = · | E = 21µM* | F = -3%

smiles: Cc1cc(OCc2cn3cccnc3n2)ccc1Cl
  A = 2% | B = 16µM* | C = 16% | D = -3%[46.1 µM] | E = 19% | F = -96%

smiles: Clc1ccc(SCc2cn3cccnc3n2)cc1
  A = 0% | B = 0% | C = 2% | D = 10% | E = 2% | F = -41%

smiles: O=C(NCCCO)c1c(O)c2cccc3c2n(c1=O)CCC3
  A = 3% | B = ? | C = 4% | D = -2% | E = ? | F = 25%

smiles: Cc1c(C(=O)N2CCC(C)CC2)sc2ncnc(N(C)c3ccccc3)c12
  A = 0% | B = 0% | C = -9% | D = -1%[46.1 µM] | E = 18µM* | F = -12%

smiles: Cc1c(C(=O)N2CCC(Cc3ccccc3)CC2)sc2ncnc(N3CCC(C)CC3)c12
  A = 0% | B = 1% | C = 1% | D = -3% | E = -4% | F = 1%

smiles: Cc1cc(Nc2cccc(C(F)(F)F)c2)ncn1
  A = 5% | B = -2% | C = 1% | D = · | E = -12% | F = -1%

smiles: Cc1ccc(Nc2nc3nonc3nc2Nc2cccc(C(F)(F)F)c2)cc1Cl
  A = -2% | B = -3% | C = 7.3µM* | D = · | E = 3.3µM* | F = ?

smiles: COC(=O)c1ccccc1S(=O)(=O)N1CCC(C(=O)NC2CCCCC2C)CC1 (configuration not stated)
  A = -1% | B = 0% | C = 1% | D = -5% | E = -19% | F = ·

smiles: COCc1nnc(NC(=O)c2cc(Cl)ccc2OC)s1
  A = 13µM* | B = -12% | C = · | D = -1% | E = 27% | F = -29%

smiles: COc1ccc(CC(=O)NNC(=O)c2cc(Cl)ccc2OC)cc1
  A = 0% | B = 28µM* | C = -3% | D = -1% | E = -3% | F = ·

smiles: CCOCc1nnc(NC(=O)c2cc(Cl)ccc2OC)s1
  A = ? | B = -27% | C = -11% | D = 1% | E = -15% | F = -11%

smiles: CNC(=S)NNC(=O)Cc1ccc(OC)cc1
  A = -1% | B = 28µM* | C = 2% | D = 7% | E = 0% | F = 2%

smiles: CCOc1ccc(NC(=O)c2cc(C3CC3)nc3c2cnn3C(C)C)cc1OC
  A = 3% | B = -3% | C = -1% | D = -2% | E = -22% | F = ·

smiles: Cc1ccc(-n2ncc(C(=O)NCCN3CCN(C)CC3)c2C2CCN(C(=O)OC(C)(C)C)CC2)c(C)c1
  A = 1% | B = -3% | C = 6% | D = · | E = -14% | F = -2%

smiles: COC(C(=O)N1CCC(n2nccc2NC(=O)C2CC2)CC1)c1ccccc1 (configuration not stated)
  A = -1% | B = 0% | C = 0% | D = 2% | E = ? | F = -39%

smiles: CCOC1=C2CN(S(=O)(=O)c3ccc(C)cc3)C(c3cccc(Cl)c3)CC2NC(c2ccccc2)C1 (configuration not stated)
  A = · | B = -3% | C = · | D = · | E = · | F = ·

smiles: O=C(NCC(O)CO)c1ccc2[nH]c3ccccc3c2c1 (configuration not stated)
  A = 2% | B = 28µM* | C = -4% | D = 1%[46.1 µM] | E = 11% | F = -11%

smiles: CCOC(=O)CNC(=O)c1ccc2[nH]c3ccccc3c2c1
  A = 0% | B = 4% | C = 1% | D = -1% | E = 6% | F = -16%

Full records from above. Order of screens: Nrf2 activator, ClpP mod, A549 tox, TCR act, Nrf2 inh, miR-21 reporter
Shown for CCOc1ccc(NC(=O)c2cc(C3CC3)nc3c2cnn3C(C)C)cc1OC = 3%, -3%, -1%, -2%, -22%, ·
Shown for Cc1c(C(=O)N2CCC(C)CC2)sc2ncnc(N(C)c3ccccc3)c12 = 0%, 0%, -9%, -1%[46.1 µM], 18µM*, -12%

The list goes on.
Letters: A = Nrf2 activator; B = ClpP mod; C = A549 tox; D = TCR act; E = Nrf2 inh; F = miR-21 reporter
smiles: O=C1c2ccccc2CN1C(CO)Cc1ccccc1 (configuration not stated)
  A = -1% | B = -1% | C = -6% | D = 4% | E = 1% | F = 1%

smiles: COc1ccc(S(=O)(=O)N2CCN(C(=O)CCCN3C(=O)NC4(CCCC4)C3=O)CC2)cc1
  A = -1% | B = 0% | C = 1% | D = · | E = -1% | F = ·

smiles: COc1ccc(C(=O)NNC(=O)OC(C)(C)C)cc1
  A = 0% | B = 1% | C = 1% | D = 0% | E = 11% | F = -3%

smiles: COc1ccc(C(=O)NN/C(C)=C/C(=O)C(F)(F)C(F)(F)C(F)(F)F)cc1
  A = 2% | B = 3.2µM* | C = 2% | D = -2%[46.1 µM] | E = -1% | F = -24%

smiles: C=CCOc1cccc(CNCCCN2CCOCC2)c1
  A = 0% | B = 14µM* | C = 3% | D = -1% | E = -26% | F = -5%

smiles: CCCSc1ncc(Cl)c(C(=O)N(Cc2ccc(Cl)cc2)Cc2ccco2)n1
  A = 5% | B = -5% | C = -5% | D = · | E = 21µM* | F = 17%

Source: PubChem (National Center for Advancing Translational Sciences (NCATS))
